For series [1], the system named is patients with severe TRMD. The experiment in a line: Phase 2 double-blind randomized placebo-controlled crossover trial, single 1-hour inhalation; Hamilton Depression Rating Scale (HDRS-21, primary outcome). The series is classed as in vivo, human. The text has this:
The study was a single-center, double-blind, randomized placebo-controlled crossover trial. All subjects underwent three one-hour inhalation sessions in random order, each separated by at least 4 weeks. The sessions included: placebo (0% N20), 25% N20, and 50% N20 balanced with air/oxygen. Blinding was executed by separating locations and teams for inhalation treatments and psychiatric evaluations. Only the anesthesia team administering the inhalation treatments was aware of study group assignment; all other participants, including patients and raters, were blinded. Likewise, the study setup was identical for all sessions, and gas flow meters were concealed, making inadvertent unblinding unlikely. The study was approved by the Washington University in St. Louis Institutional Review Board, and all patients provided written, informed consent. The trial was registered at clinicaltrials.gov (NCT03283670).
Patients were recruited from an existing database of TRMD patients identified through participation in a secondary referral clinic for TRMD at Washington University Department of Psychiatry, as well as from the “Volunteers for Health” patient pool (individuals with various medical/psychiatric conditions who volunteer to participate in clinical research) within Washington University School of Medicine. […] Patients were instructed to continue their current standard of care MDD treatment and to maintain a stable psychotropic medication dosage or psychotherapy regimen for 4 weeks prior to initiation of the study and throughout the study. Further, patients were instructed not to modify their antidepressant treatments during the three month course of the trial (i.e., discouraged from adding new antidepressants or modifying existing antidepressant dosages).
Following the in-person screen, each of the three treatment sessions consisted of […]: pre-inhalation mood assessment, inhalation, and post-inhalation follow-up sessions at 22-28 hours, 1 week, and 2 weeks. An additional assessment was completed 4 weeks following the final inhalation treatment.
All three inhalation sessions were scheduled for one hour. […] Except for the choice of inhalational gas admixture, treatment sessions were otherwise identical. The gas mix was administered via a standard anesthesia facemask through tubing connected to the anesthesia machine or an FDA-approved Porter/Praxair MXR breathing circuit. A small sample connector line was inserted into the facemask allowing the measurement of inhaled and exhaled gas concentrations. […] Patients were monitored during and after the treatment according to American Society of Anesthesiologists standards which include continuous 3-lead ECG, pulse oximetry, non-invasive blood pressure, and end tidal CO2 measurement under the supervision of an attending-level anesthesiologist. After the one-hour treatment session, patients were monitored in a recovery room for up to one hour at which time a study team physician determined whether the patient met criteria for discharge.
Data were collected at (a) baseline (prior to each inhalation session), (b) 2-hours, (c) 24 hours, (d) 1 week, and (e) 2 weeks after inhalation. Efficacy of the inhalation treatment on mood was measured using the following: Hamilton Depression Rating Scale 21-item (HDRS-21; primary outcome); Montgomery-Asberg Depression Rating Scale (MADRS); Quick Inventory of Depressive Symptomology-Self Report (QIDS-SR); and the Profile of Mood States 2nd Edition (POMS-2).

In series [2] the test system is patients with severe TRMD. The settings on record: human, in vivo. The source says: The study was a single-center, double-blind, randomized placebo-controlled crossover trial. All subjects underwent three one-hour inhalation sessions in random order, each separated by at least 4 weeks. The sessions included: placebo (0% N20), 25% N20, and 50% N20 balanced with air/oxygen. Blinding was executed by separating locations and teams for inhalation treatments and psychiatric evaluations. Only the anesthesia team administering the inhalation treatments was aware of study group assignment; all other participants, including patients and raters, were blinded. […]
All three inhalation sessions were scheduled for one hour. […] Patients were monitored during and after the treatment according to American Society of Anesthesiologists standards which include continuous 3-lead ECG, pulse oximetry, non-invasive blood pressure, and end tidal CO2 measurement under the supervision of an attending-level anesthesiologist. After the one-hour treatment session, patients were monitored in a recovery room for up to one hour at which time a study team physician determined whether the patient met criteria for discharge.
Data were collected at (a) baseline (prior to each inhalation session), (b) 2-hours, (c) 24 hours, (d) 1 week, and (e) 2 weeks after inhalation. […] Additionally, adequacy of the blind was assessed by a Blinding Questionnaire given after completion of each inhalation session. […]

The mark [3] stands for this setting: after 50% nitrous oxide, 95% CI 0.57-18.02.

Entries after “also recorded” stand apart in the source; their conditions may differ.

As to `[N-]=[N+]=O` [nitrous oxide], in series [1] (25% and 50% groups together, two weeks of observation, p=0.01), the “Overall effect of nitrous oxide (both groups) compared to placebo on the primary outcome (HDRS-21)” value is listed as “significantly improved depressive symptoms versus placebo; also recorded: significant”. Also, the “Linear increase of effect over time relative to placebo (HDRS-21)” value in series [1] (25% nitrous oxide group) was −1.38 per measurement occasion; in series [1] (50% nitrous oxide group) it was −1.55 per measurement occasion. Besides, the “Relative risk (RR) of remission” value in series [1] (after 25% nitrous oxide, 95% CI 0.27-12.84) was determined as 1.82; in series [1] (setting [3]), 2.94. Moreover, the “Relative risk (RR) of treatment response” value was found to be 2.50 in series [1] (after 25% nitrous oxide, 95% CI 0.43-16.30) and 2.94 in series [1] (setting [3]). In series [1] (single one-hour inhalation, 25% or 50%), the “Duration of antidepressant effects” value was “up to four weeks; also recorded: between two and four weeks”. Also, the “Difference between 25% and 50% nitrous oxide on HDRS-21” value in series [1] (two weeks of observation, p=0.58) is recorded as “no statistically significant difference”. For the same compound, the “Shoulder/Arm Pain” value in series [2] is recorded as 1 (4%).
